Values of other authors in article PMC3849818 (Journal of medicinal chemistry, 2013).

Legend:
[1] = system: OX2; conditions: read-out: IC50 OX2; cited from earlier work
[2] = system: OX1; conditions: cited from earlier work

Row | SMILES | IC50 [1] | potency at OX1 [2] | selectivity for OX1 over OX2 [2]
1 | COc1ccc(C[C@H]2c3cc(OC)c(OC)cc3CCN2[C@@H](C(=O)NC(C)C)c2ccccc2)cc1OC [ACT-335827, reference compound] | 417 nM |  | 
2 | Cc1nc2ccc(NC(=O)Nc3ccnc4cccnc34)cc2o1.Cl [Compound 1] |  | ~ 40 nM | at least 50 fold
